Each structure is given as a SMILES string. Active and inactive are the calls of the source. No cut-off for these calls is given here.

Chains of the proteins cited; added tags and fusions are not shown.
Calcium release-activated calcium channel protein 1 (Homo sapiens), Q96D31, UniProt Q96D31, whole entry G98S: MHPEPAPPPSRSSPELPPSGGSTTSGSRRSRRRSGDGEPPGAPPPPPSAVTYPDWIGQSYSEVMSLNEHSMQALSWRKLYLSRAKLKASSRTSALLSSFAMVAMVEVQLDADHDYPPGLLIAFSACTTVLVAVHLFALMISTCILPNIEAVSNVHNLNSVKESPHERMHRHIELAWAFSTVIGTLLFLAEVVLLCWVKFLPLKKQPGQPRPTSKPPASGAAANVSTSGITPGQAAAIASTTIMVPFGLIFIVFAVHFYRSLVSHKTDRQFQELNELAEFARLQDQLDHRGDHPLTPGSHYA

The test has as its system Calcium release-activated calcium channel protein 1 (Homo sapiens), Q96D31 [G98S]. Description: Reversible inhibition of myc-tagged human Orai-1 G98S mutant expressed in HEK293 cells assessed as reduction in inward current at 10 uM measured upto 6 mins by patch clamp electrophysiology. The format is cell-based. A general note: Patch clamp records ionic current or voltage across a cell membrane.

Regarding `Cc1nnsc1C(=O)Nc1ccc(-n2nc(C(F)(F)F)cc2C(F)(F)F)cc1`, the inhibition entry was “Active”.
